Experimental data published in patent US8138140B2, “Self-assembling peptide amphiphiles and related methods for growth factor delivery” (Northwestern University, priority 2003, dated 2012).

Assay: Acid-base (pKa) titrations of PA aggregates
Details: 3 mM, aggregated state

For “C15H31CONHVal-Val-Val-Ala-Ala-Ala-Lys-Lys-Lys-COOH [PA 1]”, the “apparent pKa of aggregates (titration curve)” value was “complex curves with transitions occurring over wide ranges”.
